Inhibition data for 54 compounds are collected here from PubChem BioAssay AID488896 (Broad Institute, 2010).

Sequences of proteins named here, by UniProt entry; tags and fusion partners are left off. A change or cut given only in a name is not applied to a line headed by its entry.
UniProt Q61009: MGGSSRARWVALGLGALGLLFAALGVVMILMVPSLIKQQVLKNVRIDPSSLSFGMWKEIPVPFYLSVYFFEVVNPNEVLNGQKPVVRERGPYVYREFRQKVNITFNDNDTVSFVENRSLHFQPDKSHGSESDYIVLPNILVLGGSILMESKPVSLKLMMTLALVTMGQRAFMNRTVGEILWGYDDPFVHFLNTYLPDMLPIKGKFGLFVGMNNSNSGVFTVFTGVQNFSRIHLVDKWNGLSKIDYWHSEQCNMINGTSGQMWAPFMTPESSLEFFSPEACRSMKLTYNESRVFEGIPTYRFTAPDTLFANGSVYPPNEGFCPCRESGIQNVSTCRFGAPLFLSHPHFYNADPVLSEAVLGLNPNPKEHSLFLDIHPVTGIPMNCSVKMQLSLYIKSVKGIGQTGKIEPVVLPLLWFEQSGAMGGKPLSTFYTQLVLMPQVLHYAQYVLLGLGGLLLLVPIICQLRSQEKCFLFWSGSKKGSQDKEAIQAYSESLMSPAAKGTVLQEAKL

Broadly, the inhibition is the drop in the measured response relative to a control, in per cent.

Only a part is listed here, and it is no random draw. Activity calls are given as the source filed them.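 How the source made its calls: active means mean replicate inhibition of at least 70% and a set share of replicates each scoring 70 or more; inconclusive means meets just one of the two criteria; inactive means fails both criteria.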

In this test the target is Scavenger receptor class B member 1 (Mus musculus) (UniProt Q61009). In words: mouse SR-BI DiI-HDL uptake blockers – ldlA[mSR-BI] cells, fluorescence, single point, primary screen (AID 488896).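 Further: 0% = median of neutral control wells and 100% = median of positive control wells.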 As to conditions: ldlA[mSR-BI] CHO cells, 3 h, at 12.5 µM, stronger effect = higher value.
`O=P1(Nc2nc3ccc(Cl)cc3s2)COc2ccccc2O1` (centres undefined): the inhibition was inactive: -19.7%.
Regarding `CCOc1ccc(C2=NCC(CBr)S2)cc1` (centres undefined), the inhibition is inactive: 0.0845%.
The figure for `Cc1ccccc1OP(=O)(Nc1ccccn1)Oc1ccccc1C` is inactive: 8.06%; for `CC(NC(=O)COC(=O)C(O)(c1ccccc1)c1ccccc1)c1ccccc1` (centres undefined) it is inactive: -12.6%.
The same measure for `CN(C)C(=O)Oc1noc2ccccc12`: inactive: -8.48%.
Regarding `O=c1c2cc([N+](=O)[O-])ccc2[nH]c2c([N+](=O)[O-])cc([N+](=O)[O-])cc12`, the inhibition was inactive: 29.4%.
Turning to `COC(=O)c1cc2c(s1)N=C(c1ccccc1)N(C)P2(=O)N1CCOCC1` (centres undefined), the inhibition was inactive: 18.4%.
The figure for `CC(=O)NC(SC(=S)N(CC(C)C)CC(C)C)C(Cl)(Cl)Cl` (centres undefined) is inactive: -12.3%; for `Cc1ccc(OP(=O)(Nc2ccccn2)Oc2ccc(C)cc2)cc1` it is inactive: -16.6%.
The same measure for `O=C(OC1CN2CCC1CC2)c1ccccc1` (centres undefined): inactive: -15.7%; for `CCC(=O)N1C2C3N(C(=O)CC)C1C1N(C(=O)CC)C(C(N1C(=O)CC)N3C(=O)CC)N2C(=O)CC`: inactive: -9.8%; for `O=P1(N(CCCl)CCCl)OCCC2CCCCN21` (centres undefined): inactive: 12.1%.
The same measure for `CCNC(=S)/N=C(\N)N[N+](=O)[O-]`: inactive: -12.1%; for `O=C(NC1CCS(=O)(=O)C1)NP(=S)(Oc1ccccc1)Oc1ccccc1` (centres undefined): inactive: -4.36%.
As for `c1ccc(-c2nn[nH]n2)c(-c2nn[nH]n2)c1`, the inhibition was inactive: -16.3%.
On to `Cc1ccc(NP(=O)(Oc2cccc(C)c2)Oc2cccc(C)c2)nc1`, for which the inhibition was inactive: -23%.
The same measure for `CCN(N=Nc1nonc1N)c1nonc1N`: inactive: -31.8%; for `Nc1cccc2ccc([As](=O)(O)O)cc12`: inactive: -9.39%.
The figure for `CCOP(=O)(Nc1ccccc1)OCC` is inactive: -14%; for `Cc1cc(SC(NC(=O)c2ccc(F)cc2)C(Cl)(Cl)Cl)ncn1` (centres undefined) it is inactive: 13.9%; for `Cc1ccc(NP(=O)(Oc2ccccc2F)Oc2ccccc2F)nc1` it is inactive: 4.6%.
The same measure for `CN(C(=O)Cc1ccc(Cl)c(Cl)c1)[C@H]1CCCC[C@@H]1N1CCCC1`: inactive: -28.6%; for `O=C(O)c1ccccc1[As](=O)(O)O`: inactive: 4.64%.
Regarding `CC(=O)Nc1ccc([As](=O)(O)O)cc1`, the inhibition was inactive: -6.8%.
The same measure for `CCCC1OP(N)(=O)OCC1CC` (centres undefined): inactive: -6.49%; for `O=P(Nc1nc2ccc(Cl)cc2s1)(c1ccccc1)c1ccccc1`: inactive: 4.08%.
The same measure for `CC(C)CC(=O)NC(Sc1ccc(Cl)cc1)C(Cl)(Cl)Cl` (centres undefined): inactive: -3.9%.
The same measure for `Nc1cc(N)c2nonc2c1[N+](=O)[O-]`: inactive: -15.5%; for `Oc1ccccc1CNc1ccccn1`: inactive: 4.36%.
Turning to `O=C(NC(Sc1ccncn1)C(Cl)(Cl)Cl)c1ccccc1` (centres undefined), the inhibition was inactive: -16.6%.
Turning to `COc1ccccc1OP(=O)(Nc1ccc(C)cn1)Oc1ccccc1OC`, the inhibition is inactive: -13.5%.
The figure for `Clc1ccc(Cl)c(NC2=NCC(CBr)S2)c1` (centres undefined) is inactive: 13.3%.
Consider `CN1CCCC(OC(=O)C(c2ccccc2)c2ccccc2)C1` (centres undefined), for which the inhibition was inactive: -15.3%.
The figure for `NC(=O)c1cc([N+](=O)[O-])cc([N+](=O)[O-])c1N` is inactive: -12.6%; for `CN(C(=O)Cc1ccc(Cl)c(Cl)c1)[C@H]1CCCC[C@H]1N1CCCC1` it is inactive: -5.36%.
As to `Cc1ccc(N/C(=N/P(=O)(N2CCOCC2)N2CCOCC2)N2CCOCC2)cc1`, the inhibition was inactive: -30.7%.
Take `CC(C)=N/N=C(\N)N[N+](=O)[O-]`: the inhibition was inactive: 0.047%.
For `CN(C)C(=O)OCCc1n(C)cc[n+]1C`, the inhibition is inactive: -23.9%.
The figure for `CC1CCN(C(=O)Oc2c(Cl)cc(Cl)c3cccnc23)CC1` is inactive: 9.69%; for `Nc1ccc([As](=O)(O)c2ccc(N)cc2)cc1` it is inactive: -16.8%.
The same measure for `C[N+]1=C2C=CC=CC=C2SC12C([N+](=O)[O-])=CC([N+](=O)[O-])=C[C-]2[N+](=O)[O-]` (centres undefined): inactive: 13.8%.
`CCN(/C(=N/P(=O)(N1CCOCC1)N1CCOCC1)N1CCOCC1)c1ccc(OC)cc1`: the inhibition is inactive: -10.6%.
The figure for `O=[N+]([O-])c1cccc2n[nH]nc12` is inactive: -45.3%.
The figure for `CC(=O)N1C2C3N(C(C)=O)C1C1N(C(C)=O)C(C(N1C(C)=O)N3C(C)=O)N2C(C)=O` is inactive: -3.59%; for `Cc1ccc(NP(=O)(Oc2ccccc2)Oc2ccccc2)nc1` it is inactive: 2.9%.
The same measure for `CCc1nc2c(n1)c1c(non1O)c1c2no[n+]1[O-]`: inactive: -8.89%; for `O=[N+]([O-])c1cc([N+](=O)[O-])c(CCNc2ccccc2)c([N+](=O)[O-])c1`: inactive: 8.88%; for `COc1ccc(C2=NCC(CBr)S2)cc1` (centres undefined): inactive: 2.65%.
As for `O=[N+]([O-])c1cccc(NC2=NCC(CBr)S2)c1` (centres undefined), the inhibition was inactive: 2.48%.
The same measure for `COC(=O)C1(C)COP(=O)(Nc2ccccc2)OC1` (centres undefined): inactive: -10.2%; for `O=C(O)CNc1ccc([As](=O)(O)O)cc1`: inactive: -6.76%; for `O=[N+]([O-])c1ncn(CCn2ncnc2[N+](=O)[O-])n1`: inactive: 11.9%.
The same measure for `O=C(Nc1cc([As](=O)(O)O)ccc1O)c1ccccc1`: inactive: 6.28%; for `O=P1(N(CCCl)CCCl)OCCCS1` (centres undefined): inactive: -8.71%.
